Reference: ChEMBL document CHEMBL5674886, “GLUT4 expression and glucose transport in human induced pluripotent stem cell-derived cardiomyocytes” (PLoS One, 2019)

Target: T1, Solute carrier family 2, facilitated glucose transporter member 1 (Homo sapiens) (UniProt P11166)
T1 sequence (whole entry): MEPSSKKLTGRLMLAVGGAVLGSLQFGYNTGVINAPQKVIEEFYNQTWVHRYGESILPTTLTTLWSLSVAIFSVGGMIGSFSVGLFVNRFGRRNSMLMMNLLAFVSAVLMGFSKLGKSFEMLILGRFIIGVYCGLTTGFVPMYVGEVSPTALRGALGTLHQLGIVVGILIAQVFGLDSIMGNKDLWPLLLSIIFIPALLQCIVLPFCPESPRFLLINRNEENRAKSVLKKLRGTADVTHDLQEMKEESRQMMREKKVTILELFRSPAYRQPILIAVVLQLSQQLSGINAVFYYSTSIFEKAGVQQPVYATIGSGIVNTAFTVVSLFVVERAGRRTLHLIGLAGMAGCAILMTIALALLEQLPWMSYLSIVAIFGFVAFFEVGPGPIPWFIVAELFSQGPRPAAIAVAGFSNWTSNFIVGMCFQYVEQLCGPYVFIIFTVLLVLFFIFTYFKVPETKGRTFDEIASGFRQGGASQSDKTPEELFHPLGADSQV
Conditions: iPSC-CM, dose 20.0 nM, time 30.0 min

inhibition: 50%
Structure (SMILES): Cc1c(NC(=O)c2cc(C(N)=O)nc3cc(F)ccc23)c(C(F)(F)F)nn1Cc1ccc(C#N)cc1 [BAY-876]
